Experimental findings from ChEMBL document CHEMBL1123414, “Neurochemistry of aging. 1. Toxins for an animal model of Alzheimer's disease” (J Med Chem, 1986) are described below.

Chains of the proteins cited; added tags and fusions are not shown.
UniProt P08483, whole entry: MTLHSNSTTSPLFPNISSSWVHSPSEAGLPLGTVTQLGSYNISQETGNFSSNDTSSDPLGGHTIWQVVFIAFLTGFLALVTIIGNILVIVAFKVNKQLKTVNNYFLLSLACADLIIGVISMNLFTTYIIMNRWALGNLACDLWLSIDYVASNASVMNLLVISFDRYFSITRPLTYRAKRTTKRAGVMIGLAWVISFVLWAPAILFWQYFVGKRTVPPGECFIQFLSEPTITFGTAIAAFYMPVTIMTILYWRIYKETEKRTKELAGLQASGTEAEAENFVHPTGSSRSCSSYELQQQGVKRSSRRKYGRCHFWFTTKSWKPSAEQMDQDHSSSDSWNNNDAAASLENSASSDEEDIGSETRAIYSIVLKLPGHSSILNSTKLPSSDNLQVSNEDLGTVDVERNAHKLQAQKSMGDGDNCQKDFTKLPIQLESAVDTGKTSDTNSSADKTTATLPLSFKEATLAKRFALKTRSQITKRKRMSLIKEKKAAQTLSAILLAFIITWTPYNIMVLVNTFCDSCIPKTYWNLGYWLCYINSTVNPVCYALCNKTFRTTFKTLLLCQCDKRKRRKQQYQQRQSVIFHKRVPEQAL

The target in this experiment is Muscarinic acetylcholine receptor M3 (Rattus norvegicus) (UniProt P08483). As to the kind of experiment: Compound was tested in vitro for its ability to displace [3H]-QNB from brain Muscarinic acetylcholine receptor.

`OCC[N+]1(C2CC2)CC1`: the Displacement is 90%.

Turning to `CC(C)[N+]1(CCO)CC1`, the Displacement was found to be 9%.
